# Data as given in patent US20260034111A1, “NOVEL HETEROCYCLES AS sPLA2-X INHIBITORS” (Cayman Chemical Company Incorporated, priority 2022, published 2026).
# How the values were obtained:
# sPLA2-IIA protein [1] = molecular target: T1, sPLA2-IIA protein (Homo sapiens, UniProt P14555); experiment: SPR single cycle kinetic binding analysis against sPLA2-IIA
# T1 sequence (P14555 21-144): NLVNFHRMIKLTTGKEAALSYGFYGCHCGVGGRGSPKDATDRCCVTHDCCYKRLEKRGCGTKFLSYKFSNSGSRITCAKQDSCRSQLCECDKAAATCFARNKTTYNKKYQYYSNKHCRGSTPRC
# sPLA2-IIA protein [2] = molecular target: T1, sPLA2-IIA protein; experiment: sPLA2-IIA enzyme inhibition assay (thio-PC substrate, DTNB detection, absorbance 410 nm); format: biochemical; design: made in house; host or cells: E. coli
# Source text: (§1) Screening Compounds for Inhibition of sPLA2-X, sPLA2-V, and sPLA2-IIA Enzyme Activity
# (§2) These sPLA2 enzymes hydrolyze the sn-2 acyl chains of glycerophospholipids, resulting in the release of a free fatty acid and a lysophospholipid. In the case of the thio-PC substrate, this enzymatic hydrolysis results in a free sulfhydryl group remaining on the lysophospholipid. This free sulfhydryl reacts with DTNB to produce the chromogenic product 5-nitro-2-thiobenzoic acid (TNB) which can be quantitated by absorbance at 410 nm. The amount of TNB produced reflects the hydrolytic activity of the enzyme.
# (§3) The recombinant human sPLA2 groups IIA, V, and X enzymes were expressed in E. coli and purified to >90% purity by standard biochemical methods.
# (§4) Procedure of Enzyme Inhibition for sPLA2-X • 1. […] Dilute the test compounds in 100% DMSO by half-log steps in a 96-well dilution plate using columns 1-11 (one compound per row). Column 12 contains DMSO alone with no compound. • 3. Prepare a 3.5 mM thio-PC substrate solution by drying down 7.2 mg of stock thio-PC in ethanol under a gentle stream of N2 gas. […] Measure the absorbance of all wells at 410 nm. • 13. Determine the mean absorbance of the “no enzyme” wells. Subtract this value from the absorbance values determined for all other wells (these are now background corrected data). • 14. […]
# sPLA2-X protein = molecular target: T2, sPLA2-X protein (Homo sapiens, UniProt O15496); experiment: sPLA2-X enzyme inhibition assay (thio-PC substrate, DTNB detection, absorbance 410 nm); format: biochemical; design: made in house; host or cells: E. coli; settings: IC50 value for positive control, value the positive control should give per the procedure
# T2 sequence (O15496 43-165): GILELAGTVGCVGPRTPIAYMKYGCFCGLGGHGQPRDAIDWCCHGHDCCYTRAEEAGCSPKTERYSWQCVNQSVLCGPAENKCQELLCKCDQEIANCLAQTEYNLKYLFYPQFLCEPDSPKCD
# Source text: as §1, §2, §3, §4
smiles,measurement,setting,value
"CCc1c(C(=O)C(N)=O)c2c(OCC(=O)O)cccc2n1Cc1ccccc1 [LY315920, Varespladib, reference compound]",Kd,sPLA2-IIA protein [1],12.1 nM
same,IC50,"sPLA2-IIA protein [2]; IC50 value for positive control, sPLA2-IIA, value the positive control should give per the procedure",~120 nM
same,IC50,"sPLA2-IIA protein [2]; sPLA2 Type IIa Inhibition (IC50; nM), numeric value, control",137 nM
same,IC50,sPLA2-X protein,~10 nM
